What all share (type): cell-based, human
The test system of assay [1] is CHLA-255-luc. Kind of assay: rhTNF viability curve by luminescence. As to conditions: 1-16,000 pg/mL rhTNF, 48 hours. As to the method:
(§1) (FIG. 8A) Luciferase expressing CHLA-255-luc and SK-NAS-luc were cultured in 1-16,000 pg/mL rhTNF for 48 hours and viability of the cells was measured by luminescence. Data was normalized to untreated control and graphed as % Viability versus Log10 of TNF concentration.

The subject of assay [2] is SK-N-AS-luc. Kind of assay: rhTNF viability curve by luminescence. The note with it: 1-16,000 pg/mL rhTNF, 48 hours. Here is the method:
as §1

Assay [3] concerns NB cell lines. Kind of assay: Intracellular IκBα in NB cell lines treated with TNFα (PhosFlow). The note with it: 12 hours. As to the method:
(FIG. 2A) Representative panel of NB cell lines were analyzed for TNFR1 and TNFR2 surface expression by flow cytometry. (FIG. 2B) NB cell lines were treated with recombinant human TNFα (rhTNFα) (10 ng/mL) for 12 hours and intracellular IκBα levels were determined by PhosFlow flow cytometry and normalized to their respective untreated controls (set to 1). (FIG. 2C) NB cell lines were cultured with human monocytes for 24 hours and intracellular flow cytometry intracellular IκBα levels were determined by PhosFlow flow cytometry and normalized to their respective NB only controls (set to 1). Surface staining of CD45 and GD2 were used to differentiate Monocyte (CD45+, GD2−) and NB (CD45−, GD2Low-high) populations. * p<0.05, ** p<0.01;
(FIG. 23A) NB cell lines were co-cultured with monocytes for 24 hours. Intracellular IκBα expression level within CD45-GD2+NB population was determined by PhosFlow flow cytometry and IκBα MFI normalized to NB alone control. Mean normalized IκBα MFI±SD from cultures run in duplicate. […] Intracellular IκBα expression level was determined by PhosFlow flow cytometry and IκBα MFI normalized to NB untreated (PBS) control. […] Intracellular IκBα expression level within CD45-GD2+NB population was determined by PhosFlow flow cytometry and IκBα MFI normalized to NB alone control. […]

For rhTNFα: recombinant human TNFα, the “viability with increasing rhTNF concentration” value is on record as “remained viable” in assay [1] and “viability decreased” in assay [2]. The “IκBα levels compared to untreated controls” value in assay [3] (5 ng/mL TNFα) is “drop in IκFα levels”. Also, the “IκBα expression compared to untreated NB cells” value in assay [3] (rhTNFα 10 ng/mL) was “decreasing trend of IκBα expression”.

(Values after US20230103554A1, “TNFa SIGNALING [sequence] TUMOR-PROMOTING INFLAMMATION THAT CAN BE TARGETED TO THERAPY” (Baylor College of Medicine, priority 2020, published 2023).)
